From ChEMBL document CHEMBL1144780, “Synthesis and SAR of new pyrrolo[2,1-f][1,2,4]triazines as potent p38 alpha MAP kinase inhibitors” (Bioorg Med Chem Lett, 2008) come the findings set out here.

Amino acid sequences for entries named in this document (tags omitted).
UniProt Q16539, whole entry: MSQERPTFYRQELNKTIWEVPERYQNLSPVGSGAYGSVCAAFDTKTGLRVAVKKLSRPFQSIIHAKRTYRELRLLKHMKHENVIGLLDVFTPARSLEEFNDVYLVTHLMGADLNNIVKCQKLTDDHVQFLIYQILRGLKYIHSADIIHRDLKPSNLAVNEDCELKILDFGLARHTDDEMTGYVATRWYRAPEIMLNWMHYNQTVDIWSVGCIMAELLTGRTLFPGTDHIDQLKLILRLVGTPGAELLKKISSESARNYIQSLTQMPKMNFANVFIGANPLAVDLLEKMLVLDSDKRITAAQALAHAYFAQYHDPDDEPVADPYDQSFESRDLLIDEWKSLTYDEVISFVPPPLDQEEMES

This assay addresses Mitogen-activated protein kinase 14 (Homo sapiens, UniProt Q16539). The assay is described as follows: Inhibition of p38alpha. The procedure, abridged: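 Bacterially expressed, activated p38 at 10 nM, preincubated 10 min with compound in 50 mM Tris pH 7.5, 10 mM MgCl2, 50 mM NaCl, 1 mM DTT, 0.3% DMSO. Run 45 min at 25 °C, stopped with EDTA, filter-captured and scintillation counted. IC50 from nonlinear least-squares regression.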

In general, IC50 refers to the concentration needed to halve the response being measured. Higher therefore signals lower potency. `COC[C@H](C)NC(=O)c1cn2ncnc(Nc3cc(NC(=O)c4ccc(C#N)cc4)ccc3C)c2c1C` came in with an IC50 of 16 nM. That is a double-digit nanomolar value.
